Earlier results on one compound are cited in patent US7355042B2, “Treatment of CNS disorders using CNS target modulators” (Hypnion, Inc., priority 2001, dated 2008).

Amino acid sequences for entries named in this document (tags omitted).
UniProt P10980, whole entry: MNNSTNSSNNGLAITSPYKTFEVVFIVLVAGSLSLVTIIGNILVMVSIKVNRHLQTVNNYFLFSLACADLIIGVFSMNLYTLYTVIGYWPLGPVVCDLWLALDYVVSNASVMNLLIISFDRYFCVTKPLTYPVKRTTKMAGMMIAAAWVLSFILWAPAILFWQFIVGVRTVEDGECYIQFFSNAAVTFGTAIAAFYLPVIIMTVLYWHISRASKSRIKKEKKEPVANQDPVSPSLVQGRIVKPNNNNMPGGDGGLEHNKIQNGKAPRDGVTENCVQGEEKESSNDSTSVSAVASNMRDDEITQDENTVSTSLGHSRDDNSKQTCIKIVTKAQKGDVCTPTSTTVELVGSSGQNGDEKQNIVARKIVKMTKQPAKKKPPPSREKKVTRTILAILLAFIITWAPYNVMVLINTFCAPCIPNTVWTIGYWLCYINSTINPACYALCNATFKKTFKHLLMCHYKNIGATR

By Ki is commonly meant a dissociation constant, usually derived from enzyme kinetics or from competition with a known ligand.

The target of the data set is T1, M2 receptor from rat cardiac membranes (Rattus norvegicus, UniProt P10980).
T1 construct: the M2 receptor was from rat cardiac membranes; from tissue; host or cells: rat cardiac membranes
Conditions: read-out: Ki of reference compounds, M2 binding assay; cited from earlier work.

Consider `C[N+]1(C)CCC(OC(=O)C(c2ccccc2)c2ccccc2)CC1` [4-DAMP methiodide], for which the Ki is 3 nM.
